Apparent affinities of Ab-91 variants for a coronavirus HR2 peptide

From the AlphaSeq antibody data of Engelhart et al. 2022 (doi:10.1038/s41597-022-01779-4), copy in the FLAb collection.

Target peptide (SARS-CoV-2 spike, HR2 region): PDVDLGDISGINAS

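Phage display of a naive human antibody library on the peptide gave the parent. The library (AAYL51) carries one to three amino acid substitutions per variant, with no insertions or deletions. AlphaSeq pools MATa yeast showing the antibodies with MATalpha yeast showing the peptide. Binding brings cells together so that they mate, and sequencing counts the barcode pairs among the diploids. Read counts were normalised to the haploid input and turned into Kd by a linear fit to BCL2-family pairs of known affinity, for each replicate. Mating was done three times.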

Parent scFv Ab-91: VL joined to VH by three GGGGS repeats. Changes lie in the heavy chain CDRs alone.
VL: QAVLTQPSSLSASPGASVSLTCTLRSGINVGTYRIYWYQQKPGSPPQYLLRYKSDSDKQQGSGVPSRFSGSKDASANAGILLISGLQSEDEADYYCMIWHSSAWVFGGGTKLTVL
VH: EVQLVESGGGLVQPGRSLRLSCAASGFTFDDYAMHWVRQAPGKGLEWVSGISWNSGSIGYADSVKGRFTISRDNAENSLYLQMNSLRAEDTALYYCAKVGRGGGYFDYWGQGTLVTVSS

Variants are written as CDR1, CDR2 and CDR3 of the heavy chain (limits as in the source). Parent: GFTFDDYAMH, GISWNSGSIGYADSVK, VGRGGGYFDY. The read-out is the apparent dissociation constant on a log10 scale (nM): the lower, the stronger. Averages over replicates are reported, and they cover detected replicates only. Where no diploid with the target was found in any replicate, the entry reads "not detected": below detection, most likely a poor binder, though not proof of it. Empty control strains, which show no peptide, gave a signal in 21% of pairings with library AAYL51; the median was 4.54 and 95% of these signals were weaker than 3.26. No background was subtracted.

CDR-H1,CDR-H2,CDR-H3,"log10 Kd (nM), mean",seen in
GFTFDDYAMH,GISWNSGSISYADSVK,VLRGGIYFDY,3.85,3/3
GFTFDDYAMH,GISYNVGDIGYADSVK,VGRGGGYFDY,4.81,2/3
GFTFDDYQMH,GISWNSGSIGYADSVK,VGRGGGLSDY,not detected,0/3
GFTFDDYAMH,GCSWNSGSIGYADSVE,VTRGGGYFDY,not detected,0/3
GHTFDDYAMH,RISWNSGSIGYADSVK,VGRGGGYFDY,not detected,0/3
GFYFDDYAMH,SISWNSGSMGYADSVK,VGRGGGYFDY,not detected,0/3
GFTFDDYADH,GISWNSSSIGYADSVK,VGRGGGYFIY,4.29,1/3
GFTFDDYAMH,GASWNAGSIGYADSVK,VGRGFGYFDY,not detected,0/3
GGTFDDYAMY,GISWNSGSIGYADSVK,VGRGGGYPDY,4.57,1/3
GFTFDDYAMH,GISNNSKSIGYYDSVK,VGRGGGYFDY,3.58,1/3
GFCFDDYAMH,GISWNSGSVGYHDSVK,VGRGGGYFDY,0.87,3/3
GFTFDDYAMH,GISWNSGSIGYYLSVK,VGRGGGYFDY,not detected,0/3
GFTFDDYAMH,GISWNSGTIGYKDSVK,VGWGGGYFDY,2.92,1/3
GFTFDDYALW,GISWNSGSIGYADSVK,FGRGGGYFDY,5.29,1/3
GFTFDDYAMS,GISWNSGSIYYADSVK,VGRGGAYFDY,3.75,1/3
GFTFDDYAMH,GISWNSGSIGYADSVK,VGRGGVRFDY,2.83,3/3
GFTFDDYAMH,GISWHSGSIGYDDSAK,VGRGGGYFDY,not detected,0/3
GFTFCDYAMH,GISWNSQSIGYADDVK,VGRGGGYFDY,1.31,3/3
GGTFDDYAMH,GISWNSGSIGYADSVK,VGRGGGYTDY,6.38,1/3
NFTFDDYHMH,GISWNSGSIGYACSVK,VGRGGGYFDY,not detected,0/3
GFTFFDYAMT,GISWNKGSIGYADSVK,VGRGGGYFDY,5.29,2/3
GFTFDDYAMH,GISWNSGSIGYTDSVK,VGRGCGYFDY,1.54,3/3
GFTFKDYAMH,GISWNSGSIGYADSVK,VTRGGGYFDW,5.80,2/3
GFTMDDYAMH,GISWNSGAIGYADSYK,VGRGGGYFDY,3.74,1/3
GFTFDDYYMN,GISWNSGSIGCADSVK,VGRGGGYFDY,not detected,0/3
GFTFDDYAMH,EISWNSGSIGYADSVK,VGRLGGHFDY,4.34,1/3
GFTFDDYVMH,GISWNSGSIGYAFSIK,VGRGGGYFDY,not detected,0/3
GFTFCDYAMH,GISWNSKSIGYADSVK,VYRGGGYFDY,not detected,0/3
GFGFDDYAMH,GISWNPGSIGYAVSVK,VGRGGGYFDY,5.04,2/3
GFTFDDYAMH,EISWNSGSIGYADFVK,VGRGNGYFDY,not detected,0/3
GFTFDDYNMH,GISFNSGSIGYADHVK,VGRGGGYFDY,5.81,1/3
NFTFPDYAMH,GISWNSGSIGYADEVK,VGRGGGYFDY,2.13,3/3
SFTFDDYAYH,GISWNSGSIGYADSVK,PGRGGGYFDY,2.13,3/3
GFTFDDYAMH,GISWMSGSIGYADSVK,VGRGGEYFDL,4.29,2/3
GFTFDDYAMH,GISWNSGSIGYADSVK,VGRGGIYQDY,not detected,0/3
GFMFDDSAMH,GISWNSGSIGYADSVK,VGRGGGIFDY,5.02,2/3
GFTNDDYAMC,GISWNSGSIGYADSVK,VGRGGGAFDY,4.31,2/3
GFTFDDYTMH,GISWRSGSHGYADSVK,VGRGGGYFDY,3.33,1/3
GFWMDDYAMH,GISWNSGSIGYADSVK,VHRGGGYFDY,1.50,3/3
GFTEDDYAMH,GISWNSGSAGYADSVK,VQRGGGYFDY,not detected,0/3
GFTFDDYAMR,GISWISGSISYADSVK,VGRGGGYFDY,not detected,0/3
GFTFDHYAMH,GIGWNSGSIGYADSVK,VLRGGGYFDY,4.68,2/3
GFTFDDYAMH,GISWNSGSDGYADSVK,VYREGGYFDY,6.22,1/3
GFTFDDYAMH,GISWFSGSIGYIDSVK,QGRGGGYFDY,not detected,0/3
GFTFDDYTMA,GISWNSGSIGYADRVK,VGRGGGYFDY,not detected,0/3
GFTFDDYAMV,GISWHSGSIGYADSVK,VGRGGGYFEY,5.32,1/3
GFTFDDYAMH,GISRNSGSIGYADSVK,VYRGGGYFDY,4.19,1/3
GFTFDDQEMH,GISWNSGSIGYADSVK,VGRGGGWFDY,3.49,3/3
GGEFDDYVMH,GISWNSGSIGYADSVK,VGRGGGYFDY,not detected,0/3
GFTFDDYAMH,GISVNSGSIGYADSSK,VGRGGGYFDY,5.11,2/3
GQTFDDYAMI,GRSWNSGSIGYADSVK,VGRGGGYFDY,4.39,1/3

The first 7 variants above that were never detected:

CDR-H1,CDR-H2,CDR-H3,"log10 Kd (nM), mean",seen in
GFTFDDYQMH,GISWNSGSIGYADSVK,VGRGGGLSDY,not detected,0/3
GFTFDDYAMH,GCSWNSGSIGYADSVE,VTRGGGYFDY,not detected,0/3
GHTFDDYAMH,RISWNSGSIGYADSVK,VGRGGGYFDY,not detected,0/3
GFYFDDYAMH,SISWNSGSMGYADSVK,VGRGGGYFDY,not detected,0/3
GFTFDDYAMH,GASWNAGSIGYADSVK,VGRGFGYFDY,not detected,0/3
GFTFDDYAMH,GISWNSGSIGYYLSVK,VGRGGGYFDY,not detected,0/3
GFTFDDYAMH,GISWHSGSIGYDDSAK,VGRGGGYFDY,not detected,0/3

Parent in this assay: reference entry 1.86, copy in this library 0.88.